# Where two headings read alike, the source gives them in different places.
# How the values were obtained:
# Jurkat cells = assay: Cytotoxicity assay (CellTiter-Glo) in Jurkat cells; settings: cytotoxicity screening in Jurkat cell lines, FIG. 20
# HL60 cells [1] = system: HL60 cells
# L5178Y cells [2] = system: L5178Y cells
# [3] = Cytotoxicity assay (CellTiter-Glo) in Jurkat cells; settings: human, Jurkat cells
# L5178Y cells [4] = assay: Cytotoxicity assay (CellTiter-Glo) in L5178Y cells; settings: read-out: Chromenone cytotoxicity IC50, L5178Y, 48 hours post drug incubation, cell viability by CellTiter-Glo, triplicate
# [5] = Cytotoxicity assay (CellTiter-Glo) in HL60 cells; settings: human, Chromenone cytotoxicity IC50, HL60, HL60 cells, 48 hours post drug incubation, cell viability by CellTiter-Glo, triplicate
# [6] = Cytotoxicity assay (CellTiter-Glo) in L5178Y cells; settings: mouse
# HL60 cells [7] = assay: Cytotoxicity assay (CellTiter-Glo) in HL60 cells; settings: read-out: Chromenone cytotoxicity IC50, HL60, 48 hours post drug incubation, cell viability by CellTiter-Glo, triplicate
compound,measurement,setting,value
5-Methoxychromone-2-tetrahydrofuran Dimer [Compound 35e],Cytotoxicity in Jurkat screening (in words),Jurkat cells,highest levels of cytotoxicity
same,IC50,HL60 cells [1],> 50 µM
same,IC50,L5178Y cells [2],39 ± 1.1 µM
same,IC50,KB cells,> 50 µM
"COC(=O)C(C)(C)c1cc(=O)c2c(O)ccc(-c3ccc(O)c4c(=O)cc(C(C)(C)C(=O)OC)oc34)c2o1 [Compound 28c, Dimethyl 2,2′-(5,5′-Dihydroxy-4,4′-dioxo-4H,4′H-[8,8′-bichromene]-2,2′-diyl)bis(2-methylpropanoate)]",IC50 at 48 h,[3],39 ± 1.1 µM
same,IC50,L5178Y cells [4],39 ± 1.1 µM
"O=c1cc(C2CCCO2)oc2c(-c3ccc(O)c4c(=O)cc(C5CCCO5)oc34)ccc(O)c12 (centres unmarked) [Compound 28e, 5,5′-Dihydroxy-2,2′-bis(tetrahydrofuran-2-yl)-4H,4′H-[8,8′-bichromene]-4,4′-dione]",IC50 at 48 h,[3],39 ± 1.1 µM
"COC(=O)C(C)(C)c1cc(=O)c2c(OC)c(-c3ccc4oc(C(C)(C)C(=O)OC)cc(=O)c4c3OC)ccc2o1 [Compound 35c, Dimethyl 2,2′-(5,5′-Dimethoxy-4,4′-dioxo-4H,4′H-[6,6′-bichromene]-2,2′-diyl)bis(2-methylpropanoate)]",IC50 at 48 h,[3],39 ± 1.1 µM
same,IC50 at 48 h,[5],39 ± 1.1 µM
same,IC50 at 48 h,"[6]; Chromenone cytotoxicity IC50, L5178Y, 48 hours post drug incubation, cell viability by CellTiter-Glo, triplicate",39 ± 1.1 µM
"COC(=O)C(C)(C)c1cc(=O)c2c(OC)ccc(-c3ccc(OC)c4c(=O)cc(C(C)(C)C(=O)OC)oc34)c2o1 [Compound 39c, Dimethyl 2,2′-(5,5′-Dimethoxy-4,4′-dioxo-4H,4′H-[8,8′-bichromene]-2,2′-diyl)bis(2-methylpropanoate)]",IC50 at 48 h,[3],39 ± 1.1 µM
same,IC50,HL60 cells [7],39 ± 1.1 µM
"COc1ccc(-c2ccc(OC)c3c(=O)c(C(C)=O)c(C)oc23)c2oc(C)c(C(C)=O)c(=O)c12 [Compound 42, 3,3′-Diacetyl-5,5′-dimethoxy-2,2′-dimethyl-4H,4′H-[8,8′-bichromene]-4,4′-dione]",IC50 at 48 h,[5],39 ± 1.1 µM
COc1ccc(-c2ccc(OC)c3c(=O)c(C(C)=O)c([C@@H](OC(C)=O)C(C)C)oc23)c2oc([C@@H](OC(C)=O)C(C)C)c(C(C)=O)c(=O)c12 [Compound 48c],IC50 at 48 h,[6],39 ± 1.1 µM

# Source: patent publication US12649725B2 (Worcester Polytechnic Institute, priority 2020, dated 2026)
